# Source: ChEMBL document CHEMBL1127487, “Cyclic enkephalin analogs with exceptional potency at peripheral delta opioid receptors” (J Med Chem, 1994)
# Amino acid sequences for entries named in this document (tags omitted).
# UniProt P32300, whole entry: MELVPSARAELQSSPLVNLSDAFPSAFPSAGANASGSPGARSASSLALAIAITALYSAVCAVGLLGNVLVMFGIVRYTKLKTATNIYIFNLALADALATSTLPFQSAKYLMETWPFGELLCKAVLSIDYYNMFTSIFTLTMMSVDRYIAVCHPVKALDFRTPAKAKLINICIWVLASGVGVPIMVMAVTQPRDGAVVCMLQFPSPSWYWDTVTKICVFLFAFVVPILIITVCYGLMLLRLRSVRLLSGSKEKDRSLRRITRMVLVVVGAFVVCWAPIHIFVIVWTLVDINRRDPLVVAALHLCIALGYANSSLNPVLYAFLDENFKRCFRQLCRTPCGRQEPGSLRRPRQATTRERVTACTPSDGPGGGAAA
# Target: Delta-type opioid receptor (Mus musculus, UniProt P32300)
# Test: Inhibitory concentration against delta opioid receptor of electrically induced smooth muscle contraction of mouse vas deferens
# Type: functional
structure (smiles),measurement,value
CC(C)[C@H](NC(=O)[C@H](CC(=O)O)NC(=O)[C@H](Cc1ccccc1)NC(=O)[C@@H](C)NC(=O)[C@@H](N)Cc1ccc(O)cc1)C(=O)N[C@H](C(=O)NCC(N)=O)C(C)C [DELTORPHIN C],IC50,0.16 nM
